# Values quoted from earlier work in paper PMC11284790, “Targeting Myeloperoxidase Ameliorates Gouty Arthritis: A Virtual Screening Success Story” (Journal of Medicinal Chemistry, 2024).
# Test system: PARP1
# Details: read-out: PARP1 IC50; cited from earlier work
compound,measurement,value
Nc1ccc2c3c(cccc13)C(=O)NC2=O [Compound 4ANI],IC50,0.18 µM
